In ChEMBL document CHEMBL2424628, “Discovery of potent and selective nonsteroidal indazolyl amide glucocorticoid receptor agonists” (Bioorg Med Chem Lett, 2013):

Assays:
Glucocorticoid receptor [1] = molecular target: T1, Glucocorticoid receptor (Homo sapiens, UniProt P04150); assay: Transactivation of glucocorticoid receptor ligand binding domain (unknown origin) transfected in human HeLa cells assessed as activation of NP-1 by GAL4 luciferase reporter gene assay; assay type: cell-based
T1 sequence (P04150 whole entry): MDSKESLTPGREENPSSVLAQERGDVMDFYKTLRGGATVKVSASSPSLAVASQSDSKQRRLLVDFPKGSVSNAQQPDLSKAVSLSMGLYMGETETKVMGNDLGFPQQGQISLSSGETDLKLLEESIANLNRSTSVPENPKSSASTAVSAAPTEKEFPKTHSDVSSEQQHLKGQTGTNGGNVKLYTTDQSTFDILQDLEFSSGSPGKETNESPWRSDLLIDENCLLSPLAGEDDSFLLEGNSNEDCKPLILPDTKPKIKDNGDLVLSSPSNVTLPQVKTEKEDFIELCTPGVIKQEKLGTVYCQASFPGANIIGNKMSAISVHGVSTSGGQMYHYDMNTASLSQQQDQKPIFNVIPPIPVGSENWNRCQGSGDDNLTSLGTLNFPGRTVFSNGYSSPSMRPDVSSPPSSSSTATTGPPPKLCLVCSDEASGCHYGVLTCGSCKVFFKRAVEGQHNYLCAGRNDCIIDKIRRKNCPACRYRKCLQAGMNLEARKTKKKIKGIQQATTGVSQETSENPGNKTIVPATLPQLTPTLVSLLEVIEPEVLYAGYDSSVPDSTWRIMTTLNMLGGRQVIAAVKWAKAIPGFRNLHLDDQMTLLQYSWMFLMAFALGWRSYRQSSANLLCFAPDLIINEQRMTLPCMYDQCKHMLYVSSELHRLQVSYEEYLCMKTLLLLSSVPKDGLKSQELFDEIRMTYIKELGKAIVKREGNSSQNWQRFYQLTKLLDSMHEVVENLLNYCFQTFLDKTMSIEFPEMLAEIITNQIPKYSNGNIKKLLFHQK

Glucocorticoid receptor [2] = molecular target: T1, Glucocorticoid receptor; assay: Agonist activity at glucocorticoid receptor in human A549 cells assessed as inhibition of IL-1beta-induced NF-kappaB dependent E-selectin activation by luciferase reporter gene assay; assay type: cell-based
Glucocorticoid receptor [3] = molecular target: T1, Glucocorticoid receptor; assay: Binding affinity to glucocorticoid receptor (unknown origin) by fluorescence polarization assay

| SMILES | EC50 (Glucocorticoid receptor [1]) | EC50 (Glucocorticoid receptor [2]) | Ki (Glucocorticoid receptor [3]) |
| --- | --- | --- | --- |
| CC(C)(C(=O)Nc1nncs1)C(c1ccccc1)c1ccc2c(cnn2C2CCCCCC2)c1 (racemic) | 188 nM | 21 nM |  |
| CC(C)n1ncc2cc(C(c3ccccc3)C(C)(C)C(=O)Nc3nncs3)ccc21 (racemic) | > 10000 nM | 195 nM |  |
| CC(C(=O)Nc1nncs1)[C@@H](c1ccccc1)c1ccc2c(cnn2-c2ccc(F)cc2)c1 (single isomer, unassigned; diastereomer 2) | 27 nM |  | 0.59 nM |
| CC(C(=O)Nc1nncs1)[C@@H](c1ccccc1)c1ccc2c(cnn2-c2ccc(F)cc2)c1 (single isomer, unassigned; diastereomer 3) | 0.1 nM |  | 0.48 nM |
